Data: ChEMBL document CHEMBL1152852, “Substituted benzo[d]oxazol-2(3H)-one derivatives with preference for the sigma1 binding site” (Eur J Med Chem, 2009)

The chains behind the UniProt entries cited, without tags or fusion partners.
UniProt Q9R0C9, whole entry: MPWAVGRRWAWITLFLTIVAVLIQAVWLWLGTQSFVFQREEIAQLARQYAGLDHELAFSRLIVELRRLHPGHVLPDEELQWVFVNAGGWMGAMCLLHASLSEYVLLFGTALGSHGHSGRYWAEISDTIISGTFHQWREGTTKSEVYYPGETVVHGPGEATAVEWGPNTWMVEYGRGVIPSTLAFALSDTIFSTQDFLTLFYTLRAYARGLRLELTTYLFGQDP

Key:
Rattus norvegicus = species: Rattus norvegicus; test: Selectivity ratio of Ki for rat liver sigma 2 receptor to Ki for rat liver sigma 1 receptor
[1] = biological target: Sigma non-opioid intracellular receptor 1 (Rattus norvegicus, UniProt Q9R0C9); test: Displacement of [3H](+)-pentazocine from sigma 1 receptor in rat liver membrane; format: cell membranes

Ratio Ki (Rattus norvegicus): 5 | Ki [1]: 61 nM
SMILES: O=c1oc2ccccc2n1CC1CCN(Cc2ccccc2Cl)CC1
